These results are taken from PubChem BioAssay AID652039 (The Scripps Research Institute Molecular Screening Center, 2013).

Protein sequences, listed by entry. Tags and fused reporters are not part of them. Lines headed by an entry give the natural chain unless they say otherwise; changes in a name come on top.
UniProt P49862: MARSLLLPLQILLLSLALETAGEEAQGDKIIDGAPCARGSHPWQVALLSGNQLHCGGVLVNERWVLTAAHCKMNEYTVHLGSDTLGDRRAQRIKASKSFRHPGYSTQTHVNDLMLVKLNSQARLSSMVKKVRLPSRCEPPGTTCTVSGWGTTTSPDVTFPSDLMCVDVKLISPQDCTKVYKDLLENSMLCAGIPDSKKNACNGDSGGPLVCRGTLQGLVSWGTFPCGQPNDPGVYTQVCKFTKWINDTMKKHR

SMILES strings stand for the structures. The list shows a part of the results, in another mix than the full data. Activity calls are given as the source filed them.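 How the source made its calls: active means activation above the mean of all tested compounds plus 3 SD, computed per campaign excluding outliers beyond control limits (cut at about 13% in these data); inactive means the rest.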

This assay concerns the target Kallikrein-7 (Homo sapiens) (UniProt P49862). Briefly: activation of human kallikrein-7 proenzyme – biochemical, fluorescence intensity, primary screen (AID 652039). The following applies: purified proKLK7, EDANS-DABCYL substrate fluorescence; at 7 µM; hits give high values; 100% is mature enzyme control, 0% vehicle.
With `CCOP1(=S)c2c(C)nn(CCC#N)c2N=C(c2ccc(F)cc2)N1C` (stereo not drawn), the activation is inactive: 0.5%.
Under `CN(C)C(=O)c1cc([N+](=O)[O-])cc2c1-c1c(cc([N+](=O)[O-])cc1[N+](=O)[O-])C2=O` stands inactive: 0.38%; under `O=[N+]([O-])c1ccc2c(c1)nnn2O`, inactive: -0.31%; under `CN(C(=O)Cc1ccc(Cl)c(Cl)c1)[C@H]1CC[C@@]2(CCCO2)C[C@@H]1N1CCCC1`, inactive: -0.29%.
On to `CCOP1(=S)c2c(C)nn(CCC#N)c2N=C(c2ccccc2F)N1C` (stereo not drawn), for which the activation was inactive: -0.4%.
Under `O=P(Nc1nccs1)(Oc1ccccc1)Oc1ccccc1` stands inactive: -0.18%.
Next, `O=C(O)COc1ccc([As](=O)(O)O)cc1[N+](=O)[O-]`: inactive: -0.4%.
Next, `Nc1ccccc1[As](=O)(O)c1ccccc1`: inactive: 0.09%; `Cc1ccc(S(=O)(=O)N(CCCN)CCCc2c(C)nc(N)[nH]c2=O)cc1`: inactive: 0.46%.
Regarding `O=P1(Nc2ncccn2)COc2ccccc2OC1`, the activation was inactive: -0.24%.
Turning to `Nc1cccc([As](=O)(O)c2ccccc2)c1`, the activation was inactive: 0.04%.
As to `NS(=O)(=O)c1cccc(NC(=O)COC(=O)C(O)(c2ccccc2)c2ccccc2)c1`, the activation was inactive: -0.23%.
Next, `O=P1(Nc2ccc(Br)cn2)COc2ccccc2OC1`: inactive: 0.25%; `O=[As](O)(c1cccs1)c1cccs1`: inactive: -0.6%.
Under `Cc1ccc(OCC(=O)OC2CN3CCC2CC3)cc1` (stereo not drawn) stands inactive: -0.49%.
Under `Cc1nn(-c2ccccc2)c2c1P(=O)(N1CCOCC1)N(C)C(c1ccccc1)=N2` (stereo not drawn) stands inactive: -0.01%.
`Cc1ccc(C(=O)OC2CN3CCC2CC3)cc1` (stereo not drawn): the activation is inactive: -0.33%.
Next, `CC1CCC(C(C)C)C(OP(=O)(Nc2ccccn2)c2ccccc2)C1` (stereo not drawn): inactive: -0.1%.
Under `CN(C)C1(CNC(=O)c2ccc(S(C)(=O)=O)cc2)CCCCC1` stands inactive: 0.27%; under `O=C(/C=C/c1ccccc1)OC1CN2CCC1CC2` (stereo not drawn), inactive: -0.32%.
Under `CCCC1OP(=O)(Nc2ccccc2)OCC1CC` (stereo not drawn) stands inactive: -0.25%; under `COc1ccccc1CNC(=O)COC(=O)C(O)(c1ccccc1)c1ccccc1`, inactive: 0.19%; under `CN(C(=O)Cc1ccc(Cl)c(Cl)c1)[C@@H]1CCCC[C@H]1N1CCCC1`, inactive: 0.1%.
Consider `CC(C)/C=N\N=C(\N)N[N+](=O)[O-]`, for which the activation is inactive: -0.24%.
Next, `CN(C(=O)Cc1ccc(Cl)c(Cl)c1)C1CCCC[C@@H]1N1CCCC1` (stereo partly drawn): inactive: 0.2%; `CC1(CBr)Cn2c(nc3ccccc3c2=O)S1` (stereo not drawn): inactive: 0.23%.
Next, `CCC1=CC2Cc3nc4ccc(Cl)cc4c(N)c3C(C1)C2` (stereo not drawn): inactive: 0.32%; `O=P1(Nc2ccccn2)COc2ccccc2OC1`: inactive: -0.34%.
Under `CCOP(=O)(NC(=NC(C)c1ccccc1)NC(C)c1ccccc1)OCC` (stereo not drawn) stands inactive: -0.19%; under `CN(CCCl)Cc1cc(Cl)c(NC2=NCCN2)c(Cl)c1`, inactive: 0.16%.
For the compound `CCOP(=O)(Nc1ccc(C)cn1)OCC`, the activation was inactive: -0.14%.
Under `Clc1n[nH]nc1-c1nn[nH][15n]1` stands inactive: -0.89%.
Under `O=P1(N(CCCl)CCCl)NCCC(C(F)(F)F)O1` (stereo not drawn) stands inactive: -0.56%; under `CC(C)(C)C(=O)NC(Sc1ncccn1)C(Cl)(Cl)Cl` (stereo not drawn), inactive: -0.73%; under `O=C(OC1CN2CCC1CC2)c1cccc([N+](=O)[O-])c1` (stereo not drawn), inactive: 0.28%.
On to `CCOC(=O)c1ccc(NC(=O)C(C)(CCl)SC)cc1` (stereo not drawn), for which the activation is inactive: 0.7%.
Regarding `CCC(C)N(CC(C)C)C(=S)SC(NC(C)=O)C(Cl)(Cl)Cl` (stereo not drawn), the activation is inactive: -0.51%.
Under `COP1(=S)c2c(C)nn(CCC#N)c2N=C(c2ccc(F)cc2)N1C` (stereo not drawn) stands inactive: 0.3%; under `COC(=O)C1(C)COP(=O)(N2CCCC2)OC1` (stereo not drawn), inactive: -0.51%.
Next, `O=C(O)C(=O)c1ccc(N(CCCl)CCCl)cc1`: inactive: 0.03%; `O=C(COc1ccccc1)OC1CN2CCC1CC2` (stereo not drawn): inactive: -0.51%.
Next, `O=C(Nc1ccncc1[N+](=O)[O-])c1ccc([N+](=O)[O-])cc1[N+](=O)[O-]`: inactive: -0.29%.
For the compound `CCOC(=O)Nc1cccc([As](=O)(O)O)c1`, the activation was inactive: 0.02%.
In the case of `Cc1cc(SC(NC=O)C(Cl)(Cl)Cl)ncn1` (stereo not drawn), the activation is inactive: 0.45%.
`O=P(Nc1ccccn1)(c1cccc2ccccc12)c1cccc2ccccc12`: the activation is inactive: 0.52%.
Next, `O=[N+]([O-])c1ccc(Nc2ccc(Oc3ccc([N+](=O)[O-])cc3[N+](=O)[O-])cc2)c([N+](=O)[O-])c1`: inactive: -0.2%; `O=C(O)C(O)c1ccc(N(CCCl)CCCl)cc1` (stereo not drawn): inactive: 0.47%; `CCOC(=O)Nc1ccc([As](=O)(O)O)c(O)c1`: inactive: 0.4%.
Under `CC1CCNP(=O)(N(CCCl)CCCl)O1` (stereo not drawn) stands inactive: 0.15%.
For `COP(=O)(OC)N1CC1c1ccccc1` (stereo not drawn), the activation was inactive: 0.16%.
Under `CCCCOc1ccc(C(=O)NCC2(N3CCCCC3)CCCCC2)cc1OC` stands inactive: -0.25%; under `Cc1cc(SC(NC(=O)c2ccccc2)C(Cl)(Cl)Cl)nc(C(C)C)n1` (stereo not drawn), inactive: 0.47%; under `CC(C)c1ccc(OP(=O)(Nc2ccccn2)Oc2ccccc2F)cc1` (stereo not drawn), inactive: -0.09%.
Turning to `COC(=O)C1(C)COP(=O)(N2CCCCCC2)OC1` (stereo not drawn), the activation was inactive: -0.44%.
Next, `O=C(OC1CN2CCC1CC2)c1cccc2[nH]cnc12` (stereo not drawn): inactive: -0.63%; `CCN(CC)C(=S)SC(NC=O)C(Cl)(Cl)Cl` (stereo not drawn): inactive: 0.24%.
Next, `CC(C)NC(=O)NP(=O)(Oc1ccccc1)Oc1ccccc1`: inactive: 1.26%; `C[As](=O)(O)c1cccc(C(=O)O)c1`: inactive: 0.6%.
Under `O=[As](O)(c1ccc(O)cc1)c1ccccc1O` stands inactive: 0.13%.
`COc1cc(C(=O)NCC2(N3CCOCC3)CCCCC2)ccc1OCC(C)C`: the activation was inactive: 0.22%.
Next, `O=[N+]([O-])c1ccc(-c2cc([N+](=O)[O-])c(O)c([N+](=O)[O-])c2)cc1`: inactive: 0.03%.
On to `Cc1ccc(OP(=O)(Nc2ccc([N+](=O)[O-])cn2)Oc2ccc(C)cc2)cc1`, for which the activation was inactive: -0.04%.
Next, `[N-]=[N+]=NC1CCCCC1NC(=O)c1cc([N+](=O)[O-])cc([N+](=O)[O-])c1` (stereo not drawn): inactive: 0.02%; `Cc1ccc2nc3c(c(C)c2c1)CC(C(Cl)Cl)S3` (stereo not drawn): inactive: -0.1%; `O=[N+]([O-])c1cc(Oc2ccc([N+](=O)[O-])cc2C(F)(F)F)cc([N+](=O)[O-])c1`: inactive: -0.04%.
For the compound `COc1ccc(N/C(=N/P(=O)(N2CCOCC2)N2CCOCC2)N2CCOCC2)cc1`, the activation is inactive: 0.25%.
Next, `Cc1c2c(nc3ccccc13)SC(C(Cl)Cl)C2` (stereo not drawn): inactive: 0.01%.
Under `O=C(OC1CN2CCC1CC2)C12CC3CC(CC(C3)C1)C2` (stereo not drawn) stands inactive: 0.24%; under `Cc1cc(=O)[nH]c(N[N+](=O)[O-])n1`, inactive: -0.59%; under `O=P1(N(CCCl)CCCl)Nc2ccccc2N1`, inactive: -0.23%.
Under `O=P1(N(CCCl)CCCl)OCCCN1CCCl` (stereo not drawn) stands inactive: -0.14%.
In the case of `COc1ccc2nc(NP(=O)(c3ccccc3)c3ccccc3)sc2c1`, the activation is inactive: -0.61%.
`COc1cc(I)ccc1[As](=O)(O)O`: the activation was inactive: -0.21%.
